Data published in patent US20250034099A1, “BENZOXAZINONE DERIVATIVES” (CHIA TAI TIANQING PHARMACEUTICAL GROUP CO., LTD., priority 2021, published 2025).

Amino acid sequences for entries named in this document (tags omitted). Residues count along the entry.
UniProt P08235, 726-984 limits assumed: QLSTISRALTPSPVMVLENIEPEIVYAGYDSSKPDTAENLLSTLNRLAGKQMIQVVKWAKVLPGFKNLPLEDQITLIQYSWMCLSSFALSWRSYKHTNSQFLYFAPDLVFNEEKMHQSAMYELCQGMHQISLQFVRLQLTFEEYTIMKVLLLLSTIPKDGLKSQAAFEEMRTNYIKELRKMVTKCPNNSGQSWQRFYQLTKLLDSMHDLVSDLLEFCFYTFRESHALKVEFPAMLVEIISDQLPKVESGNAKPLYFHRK

Target: MR (Homo sapiens, UniProt P08235)
Assay: In vitro evaluation of MR antagonistic activity (HEK293/Gal4/MR cell line, Bright Glo)
Conditions: read-out: IC50 (nM) for MR; HEK293/Gal4/MR cells, aldosterone final 1 nmol, 24 h incubation

Row | IC50 [nM] | SMILES
1 | 80 | Cc1noc(CC2COc3cc(F)cc(F)c3N2Cc2ccc3c(c2)NC(=O)CO3)n1 (single isomer, unassigned)
2 | 372 | CNC(=O)CC1COc2cc(F)ccc2N1Cc1cc(C)c2c(c1)NC(=O)CO2 (centres unmarked)
